Test results: patent publication US4916223A, “Substituted hexahydroarylquinolizines” (Merck & Co., Inc., priority 1989, dated 1990)

Experiments:
[1] = molecular target: T1, peripheral α2-adrenoceptors (Rattus norvegicus, UniProt P22909); experiment: In vitro field-stimulated rat vas deferens test: antagonism of clonidine (Schild analysis, pA2); format: cell-based
T1 construct: isolated, field-stimulated rat vas deferens is utilized as an in vitro model; from tissue; host or cells: rat vas deferens (isolated, field-stimulated)
T1 sequence (P22909 1-465): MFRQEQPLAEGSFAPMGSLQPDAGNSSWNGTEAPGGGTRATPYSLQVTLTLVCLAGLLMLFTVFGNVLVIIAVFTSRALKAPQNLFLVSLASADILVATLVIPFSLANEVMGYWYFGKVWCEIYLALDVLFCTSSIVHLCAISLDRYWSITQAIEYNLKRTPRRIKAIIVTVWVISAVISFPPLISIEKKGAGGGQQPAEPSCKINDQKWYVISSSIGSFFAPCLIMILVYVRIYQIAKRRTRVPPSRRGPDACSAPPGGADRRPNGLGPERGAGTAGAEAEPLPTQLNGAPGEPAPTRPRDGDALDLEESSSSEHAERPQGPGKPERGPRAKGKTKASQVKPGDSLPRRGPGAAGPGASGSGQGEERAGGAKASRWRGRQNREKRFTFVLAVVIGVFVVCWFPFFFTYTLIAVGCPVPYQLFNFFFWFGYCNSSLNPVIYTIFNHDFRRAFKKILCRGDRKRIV
From the text: In the test, isolated, field-stimulated rat vas deferens is utilized as an in vitro model to determine the potency and selectivity of compounds toward the various α-adrenoceptor subtypes. Selective α2 -adrenoceptor agonists such as clonidine reduce the magnitude of neurogenic contractions in the peripheral smooth muscle by reducing the stimulated release of norepinephine through the activation of presynaptic α2 -adrenoceptors on the noradrenergic nerve terminals.
The vas deferens from rats weighing 250-350 grams were freed of connective and fatty tissue and suspended between two platinum electrodes in an organ bath under 0.5 gram tension. The organ bath contained Tyrode's solution which was bubbled with 5% CO2 and 95% O2 and stimulated with square wave pulses at 0.1 Hz, 0.3 msec in duration and supramaximal voltage (30-50 V). Contractile responses were recorded. α2 -Agonist drug (clonidine) was added cumulatively to the bath and EC50 values determined by regression analysis. […] Computation of the pA2 value was performed using the formula: pA2 =pAx +log (x-1), where pAx is the negative logarithm of the molar concentration of antagonist and x is the dose ratio of EC50 values for the agonist before and after addition of the antagonist.

[2] = molecular target: T1, peripheral α2-adrenoceptors; experiment: Peripheral versus central α2-adrenoceptor selectivity, vas deferens compared with mydriasis data; conditions: relative to yohimbine
central α2-adrenoceptors = experiment: In vivo antagonism of clonidine-induced mydriasis; set-up: species or system rat (Sprague-Dawley); conditions: for Antagonism of Clonidine Induced Mydriasis (ED2X): anesthetized rats, pretreated 5 minutes before i.v. clonidine, dose causing doubling of clonidine ED50, N=4/group
Method: Administration of clonidine to rat produces mydriasis by an α2 -adrenergic mechanism in the central nervous system as reported by Koss et al., Naunyl-Schmiedeberg's Arch. […] Ophthal. […] Antagonism of the mydriatic action of clonidine was used as an in vivo test to examine the ability of the compounds to penetrate the central nervous system and antagonize α2 -adrenoceptors in the rat.
Adult male Sprague-Dawley rats (250-450 g) were anesthetized with chloral hydrate (120-160 mg/kg i.p.), and a femoral vein was cannulated for drug administration. Body temperature was maintained at 37° C.±0.5. The eye was illuminated using a light with green filters to provide added contrast to aid in visualization of the iris. Pupil diameter was measured using a dissecting microscope containing an ocular micrometer with a resolution of 0.1 mm.
Five minutes was allowed to elapse between successive doses of clonidine, and pupil diameter was determined immediately prior to the injection of the next dose of clonidine. The dose of clonidine required to cause 50% of the maximum increase in diameter of the pupil was determined for each rat, using logarithmic linear regression analysis. […] The potency of antagonists was expressed as ED2X values, i.e. the calculated dose of antagonist required to cause a doubling in the ED50 value for clonidine.

Row | Structure (SMILES) | Kb ([1]; isolated field-stimulated rat vas deferens, agonist clonidine, antagonist at least 20 minutes contact) | higher affinity for α2-adrenoceptors than yohimbine ([1]; vas deferens data, relative to yohimbine) | more selective for the periphery than yohimbine [2] | Antagonism of Clonidine Induced Mydriasis (ED2X) (central α2-adrenoceptors) | less potent in eliciting a response mediated by central α2-adrenoceptors (mydriasis data) (central α2-adrenoceptors; relative to yohimbine)
1 | CS(=O)(=O)NCCN1C(=O)NC[C@]12CCN1CCc3c(oc4ccccc34)[C@@H]1C2 [Arylquinolizine Compound A, (2R,12bS)-3'-(2-methanesulfonamidoethyl)-spiro-[1,3,4,6,7,12b-hexahydrobenzo[b]furo[2,3-a]quinolizin]-2,4'-imidazolidin-2'-one] | 3.02 nM | seven | about 900 times | 18.0 mg/kg i.v. | 132 fold
2 | COC(=O)[C@@H]1[C@H]2C[C@H]3c4[nH]c5ccccc5c4CCN3C[C@@H]2CC[C@@H]1O [Yohimbine, reference compound] |  |  |  | 0.136 mg/kg i.v. | 
